Measured values taken from ChEMBL document CHEMBL1145963, “Identification, synthesis, and activity of novel blockers of the voltage-gated potassium channel Kv1.5” (J Med Chem, 2003).

Protein sequences, listed by entry. Tags and fused reporters are not part of them.
UniProt P22460, whole entry: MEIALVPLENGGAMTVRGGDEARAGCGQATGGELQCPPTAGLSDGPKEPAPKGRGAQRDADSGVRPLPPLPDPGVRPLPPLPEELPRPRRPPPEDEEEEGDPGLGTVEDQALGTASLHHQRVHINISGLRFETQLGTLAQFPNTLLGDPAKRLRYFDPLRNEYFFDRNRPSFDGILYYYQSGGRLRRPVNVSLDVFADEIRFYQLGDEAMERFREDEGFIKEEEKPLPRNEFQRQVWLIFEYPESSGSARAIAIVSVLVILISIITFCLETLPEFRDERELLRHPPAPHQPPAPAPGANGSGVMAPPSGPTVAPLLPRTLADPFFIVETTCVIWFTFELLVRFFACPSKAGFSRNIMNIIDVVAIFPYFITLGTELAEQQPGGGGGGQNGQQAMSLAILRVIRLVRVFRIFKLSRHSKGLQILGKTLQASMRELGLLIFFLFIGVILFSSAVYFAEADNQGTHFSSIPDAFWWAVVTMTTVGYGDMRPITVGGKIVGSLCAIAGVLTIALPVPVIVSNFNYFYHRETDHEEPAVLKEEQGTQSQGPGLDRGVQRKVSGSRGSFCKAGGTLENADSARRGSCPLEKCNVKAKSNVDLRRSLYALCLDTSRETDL

Target: Potassium voltage-gated channel subfamily A member 5 (Homo sapiens, UniProt P22460)
Assay: Inhibition of human voltage-gated potassium channel subunit Kv1.5 expressed in Xenopus oocytes
Type: cell-based, Oocyte
Outline: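 Compounds came from a 10 mM DMSO stock diluted into ND96. Read-out was percent inhibition of the compound-free control current. For IC50, 3–4 concentrations were each tested at least twice and fitted with a variable-slope Hill equation.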

Compound COc1ccc(CC(=O)NCc2ccccc2-c2ccccc2C(=O)NCc2ccc(F)cc2F)cc1 has an IC50 of 1200 nM.

For C[C@H](OC(=O)NCc1ccccc1-c1ccccc1C(=O)NCCc1ccccn1)c1ccccc1, the IC50 was 160 nM.
